Laboratory results published in article PMC6597003 (ACS chemical biology, 2018).

Amino acid sequences for entries named in this document (tags omitted). Residues count along the entry.
UniProt P29317, 23-202: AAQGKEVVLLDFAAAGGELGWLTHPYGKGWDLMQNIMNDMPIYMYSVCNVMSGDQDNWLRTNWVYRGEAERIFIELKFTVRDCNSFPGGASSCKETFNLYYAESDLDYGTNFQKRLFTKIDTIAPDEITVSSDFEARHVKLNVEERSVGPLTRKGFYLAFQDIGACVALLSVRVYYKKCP

Molecular target: ephrin type-A receptor 2 ligand-binding domain (UniProt P29317)
Test: DELFIA displacement assay
Conditions: not given

| Molecule | IC50 [µM] |
| --- | --- |
| 135F4 (peptide) | 5.6 |
| 135F3 (peptide) | 1.5 |

Second part, the molecule after the results:

| IC50 [µM] | Molecule |
| --- | --- |
| > 200 | 135F11 (peptide) |
| 4.1 | 135F12 (peptide) |
| 7.6 | 135F8 (peptide) |
| 1.7 | 135H2 (peptide) |

Molecular target: T1, ephrin type-A receptor 2 ligand-binding domain (UniProt P29317 23-202)
Test: DELFIA displacement assay
Conditions: not given

| Molecule | IC50 [µM] |
| --- | --- |
| YSAYPDSVPFMP (C-terminal amide) [135C10] | 4.6 |
| YSAYPDSVPFRS (C-terminal amide) [135C3] | 4.4 |
| YSAYPDSVPFR (C-terminal amide) [135C4] | 4.9 |
| YSAYPDSVPMRP (C-terminal amide) [135C8] | 8.4 |
| SAYPDSVPFRP (position 1: (4-F,3-C1PhOCH2CO) acyl cap (not in the letters, which begin at position 2); C-terminal amide) [135E2] | 3.1 |
| YSAYPDSVPFKP (C-terminal amide) [135F1] | 1.5 |
| YSAYPDSVPFFP (position 11: 4-Amino-Phe (X); C-terminal amide) [135E10] | 2.3 |
| YSAYPDSVPMRS (C-terminal amide) [135C7] | 8.8 |
| YSAYPDSVEFRP (C-terminal amide) [135A8] | 36.3 |
| YSAYPDSVPFFP (position 11: 4-Amimo-Methy1-Phe as printed (X); C-terminal amide) [135E11] | 1.3 |
| YSAYPDSVPMMP (C-terminal amide) [135C9] | 11.8 |
| YSAYPDSVPFMS (C-terminal amide) [135C1] | 7.5 |

Continued, values first:

| IC50 [µM] | Molecule |
| --- | --- |
| 11.4 | YSAFPDSVPFRP (position 4: 3C1Phe as printed, 3-chloro-Phe (X); C-terminal amide) [135F6] |
| > 200 | FTPFTLGKEFKE (C-terminal amide) [ephrin A1 peptide] |
| > 200 | YSAFSLGYEFHA (C-terminal amide) [ephrin A3 peptide] |
| > 200 | FSPNLWGLEFQK (C-terminal amide) [ephrin B2 peptide] |
| > 200 | FTPFSLGFEFRP (C-terminal amide) [ephrins A2/A5/A4 peptide] |

Molecular target: T1, ephrin type-A receptor 2 ligand-binding …
Test: DELFIA displacement assay
Conditions: not given
Remark: another data set of the same source

| IC50 [µM] | Molecule |
| --- | --- |
| 32.9 | YCAYPDCVPFRP (cyclic: disulfide bridge between Cys at position 2 and Cys at position 7; C-terminal amide) [135G8] |

Test system: not given
Test: not given
Conditions: cited from earlier work

| Molecule | stability in plasma |
| --- | --- |
| CSCC[C@H](NC(=O)[C@H](CCSC)NC(=O)[C@@H]1CCCN1C(=O)[C@@H](NC(=O)[C@H](CO)NC(=O)[C@H](CC(=O)O)NC(=O)[C@@H]1CCCN1C(=O)[C@H](Cc1ccc(O)cc1)NC(=O)[C@H](C)NC(=O)[C@H](CO)NC(=O)[C@@H](N)Cc1ccc(O)cc1)C(C)C)C(=O)N[C@@H](CO)C(N)=O [YSA] | fairly unstable in plasma with rapid hydrolysis by amino-peptidases |
